# Laboratory results taken from ChEMBL document CHEMBL1152112, “1-Phenyl-[2H]-tetrahydropyridazin-3-one, A-53612, a selective orally active 5-lipoxygenase inhibitor” (Bioorg Med Chem Lett, 1992).
# Protein sequences, listed by entry. Tags and fused reporters are not part of them. Lines headed by an entry give the natural chain unless they say otherwise; changes in a name come on top.
# UniProt P35354: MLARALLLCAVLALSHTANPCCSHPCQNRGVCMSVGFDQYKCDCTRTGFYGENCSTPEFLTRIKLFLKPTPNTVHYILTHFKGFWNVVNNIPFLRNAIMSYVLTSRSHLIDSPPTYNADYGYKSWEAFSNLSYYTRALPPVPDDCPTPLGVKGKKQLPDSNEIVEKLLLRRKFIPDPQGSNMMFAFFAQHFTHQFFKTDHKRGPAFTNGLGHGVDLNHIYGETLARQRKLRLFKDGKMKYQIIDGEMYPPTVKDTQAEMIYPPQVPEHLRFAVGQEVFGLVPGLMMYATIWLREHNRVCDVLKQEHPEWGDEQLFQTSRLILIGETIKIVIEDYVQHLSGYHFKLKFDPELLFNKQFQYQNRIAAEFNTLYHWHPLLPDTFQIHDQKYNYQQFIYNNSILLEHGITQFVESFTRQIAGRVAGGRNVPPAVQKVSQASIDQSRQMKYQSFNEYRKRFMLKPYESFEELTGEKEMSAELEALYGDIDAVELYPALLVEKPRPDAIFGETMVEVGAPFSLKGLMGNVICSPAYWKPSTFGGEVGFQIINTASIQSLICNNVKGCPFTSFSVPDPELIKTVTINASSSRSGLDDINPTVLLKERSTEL
# UniProt P23219: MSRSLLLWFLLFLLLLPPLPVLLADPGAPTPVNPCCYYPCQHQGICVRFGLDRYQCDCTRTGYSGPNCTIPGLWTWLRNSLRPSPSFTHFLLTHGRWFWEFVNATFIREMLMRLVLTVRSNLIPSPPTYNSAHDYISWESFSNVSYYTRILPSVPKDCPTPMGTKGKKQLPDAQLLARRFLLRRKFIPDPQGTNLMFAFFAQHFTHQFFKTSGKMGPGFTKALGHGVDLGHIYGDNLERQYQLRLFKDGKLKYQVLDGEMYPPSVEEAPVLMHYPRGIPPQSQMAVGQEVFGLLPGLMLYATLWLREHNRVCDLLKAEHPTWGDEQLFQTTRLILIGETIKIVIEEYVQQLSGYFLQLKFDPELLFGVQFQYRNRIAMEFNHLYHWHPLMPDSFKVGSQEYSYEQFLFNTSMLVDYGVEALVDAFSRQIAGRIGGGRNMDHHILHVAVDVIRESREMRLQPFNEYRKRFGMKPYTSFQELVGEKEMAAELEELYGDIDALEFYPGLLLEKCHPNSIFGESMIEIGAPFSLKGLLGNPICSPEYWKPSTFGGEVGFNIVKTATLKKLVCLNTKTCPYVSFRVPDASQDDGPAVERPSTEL
# Experiments:
# Cyclooxygenase [1] = molecular target: T1, Cyclooxygenase (Homo sapiens, UniProt P35354+P23219); experiment: Inhibitory activity against human whole blood, TXB2 cyclooxygenase was evaluated; format: protein assay
# Cyclooxygenase [2] = molecular target: T1, Cyclooxygenase; experiment: Inhibitory activity against sheep seminal vesicle cyclooxygenase was evaluated; format: tissue-based, Ovis aries
smiles,measurement,setting,value
NC1=NN(c2cccc(C(F)(F)F)c2)CC1 [BW-755C],IC50,Cyclooxygenase [1],5.8 µM
same,IC50,Cyclooxygenase [2],97 µM
